# The list is not random: actives were taken first. Their share in the collection is about 0.43%.
# Rango dissoc inh: inhibitors of RanGTP-induced Rango-importin beta complex dissociation; O95149+P62826; Biochemical FRET Rango-importin beta, RanGTP-induced dissociation; Potency, µM (doses to about 46.1 µM), inactives show at the highest dose activity change, negative = inhibition; hit rate 0.071% among 340,000; calls by dose curve; further: potency means the concentration at half of the fitted maximal effect; % of control where 0% means no effect; nearly all actives have a fitted effect of over 45% in size
#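 Rango (0.1 uM)–importin beta (0.25 uM) complex; RanGTP-RCC1 trigger; 45 min RT; CFP/YFP FRET read.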
# B2AR arrestin: recruits beta-arrestin to the human beta2-adrenergic receptor; hit rate 0.02% among 330,000; Potency, µM (top dose mostly 46.1 µM), for the others: at the top dose activation, usual class: activators; beta-arrestin recruitment to beta2AR, cell-based reporter;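 further: potency means the concentration at half of the fitted maximal effect; 0% = DMSO controls and full agonism = EC100 isoproterenol or metaproterenol; nearly all actives have a fitted effect of over 65% in size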
# Rango complex inh: Rango-importin beta binding inhibition; Potency, µM (doses to about 92.2 µM), without a hit: at the top dose inhibition of complex formation; hit rate 0.031% among 340,000; Rango CFP/YFP FRET sensor + importin beta, 45 min; AID 540263; Q14974; calls by dose curve;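 further: potency means the concentration at half of the fitted maximal effect; 0% = DMSO wells and 100% = buffer wells lacking importin beta; nearly all actives have a fitted effect of over 15% in size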
#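 Inhibition scored from the CFP 486 nm/YFP 530 nm FRET ratio 45 min after adding 0.125 microM importin beta to 50 nM Rango biosensor preincubated 5 min with compound (room temperature, PBS with DTT, Tween-20, BSA). No-importin wells as positive control.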
# CCT modulator: changes cytosolic chaperonin activity | hit rate 0.3% among 360,000 | purified chaperonin ATPase assay, HTRF ADP detection, 30 min | AID 651819 | activity change, % (no concentration beside the values), hits read low; in the data active means activity change below about -30%; further: on the % scale 0 is the no-effect control and ±100 the full control effect
#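 Nucleotide hydrolysis assay: TRiC at 20–40 nM final (set by batch activity) with 10 uM ATP, 30 min at 37 °C, in presence of 76 uM compound. Detection by competitive ADP HTRF, 30 min ambient.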
# MmCpn inh: inhibitors of Methanococcus maripaludis chaperonin TRiC (MmCpn); purified Mm-Cpn ATPase, ADP Transcreener TR-FRET; Potency, µM (highest dose often 76.9 µM), without a hit: top-dose activity, negative = inhibition, usual class: inhibitors; hit rate 0.031% among 330,000; AID 504842; further: potency means the concentration at half of the fitted maximal effect; on the % scale 0 is the no-effect control and ±100 the full control effect; nearly all actives have a fitted effect of over 80% in size
#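 Measured: ADP formation by purified Mm-CPN. Conditions: 25 nM protein, 10 uM ATP, Tris pH 7.4 with Mg2+, K+ and DTT, 37°C for 30 min. Detection: Transcreener HTRF after 30 min at room temperature.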
# * hit, by the source's call; ? = inconclusive; / = no result given. Unless noted, the call rests on the fitted dose curve; in most records, active means well fitted curve in the direction sought with a large enough effect; inconclusive means small, poorly fitted or top-dose-only effect, or another doubt; inactive means no such curve, though single readings can be large; an effect the other way counts as inactive or inconclusive.
nr	smiles	Rango dissoc inh	CCT modulator	MmCpn inh
1	CCOC(=O)C1(Cc2ccc(O)cc2)NC(c2ccco2)C2C(=O)N(c3ccccc3F)C(=O)C21 (centres undefined)	-7%	1	1%
2	COc1c(OC(C)=O)c(=O)n2c3ccccc3c3ccnc1c32	0%	1	0%
3	CC(=O)Oc1c(C)c(=O)n(C)c2ccccc12	13%	-3	-2%
4	CC1(C(=O)NS(=O)(=O)C2CC2)CCCN(C(=O)Cc2ccc3ccccc3c2)C1 (centres undefined)	/	-2	/
5	Cc1ccc(Nc2nc(N)[nH]c(=O)c2N=O)cc1	?	1	-4%
6	CCOc1ccc(/C=N/OCC(=O)Nc2cc(S(=O)(=O)N3CCOCC3)ccc2OC)cc1	13%	-84*	/
7	Cc1sc2ncnc(N)c2c1C	-23%	-55*	0%
8	CC1(C)C2CCC1(C)C(OC(=O)CSc1nc(N)cc(=O)[nH]1)C2 (centres undefined)	11%	-70*	-2%

nr	B2AR arrestin	Rango complex inh
1	0%	0%
2	0%	21µM*
3	-1%	7%
4	/	/
5	-1%	?
6	/	1%
7	0%	1%
8	-1%	-1%

# Next compounds follow:
nr	smiles	Rango dissoc inh	CCT modulator	MmCpn inh
9	O=Cc1ccc(O)c2ncccc12	?	-1	-4%
10	COc1ccccc1/C=N\N=C(\N)c1ccccn1	-3%	0	0%
11	COc1ccccc1-c1c(C)oc2c(CN3CCN(CCO)CC3)c(O)ccc2c1=O	17%	-52*	0%
12	CC(C(=O)N1CCc2ccccc21)N1CCN(S(=O)(=O)c2cccs2)CC1 (centres undefined)	-23%	1	-2%
13	N=C1/C(=C\c2ccc(Br)o2)C(=O)N=C2SC(CC(=O)N3CCCCC3)=NN12	6.5µM*	3	-4%
14	Cc1ccc(/C=C2/C(=N)N3N=C(CC(=O)N4CCCC4)SC3=NC2=O)o1	7%	2	1%
15	CCN(CC)C(=O)Cn1cc(C(=O)C(=O)N2CC=C(c3ccccc3)CC2)c2ccccc21	-1%	-4	0%
16	CCN(CC)C(=O)Cn1cc(C(=O)C(=O)N2CCN(C)CC2)c2ccccc21	2%	0	-1%

nr	B2AR arrestin	Rango complex inh
9	6.3µM*	?
10	0%	0%
11	-1%	2%
12	0%	-2%
13	0%	?
14	0%	0%
15	0%	37µM*
16	-1%	1%

# Remaining list, next part
nr	smiles	Rango dissoc inh	CCT modulator	MmCpn inh
17	CCOC(=O)C1CCN(S(=O)(=O)c2cc3c4c(c2)C(C)C(=O)N4CCC3)CC1 (centres undefined)	-2%	1	-2%
18	COc1ccccc1CC(=O)N1CCN(c2cccc(C(F)(F)F)c2)CC1	0%	-34*	0%
19	COc1ccccc1NC(=O)N1CCN(c2cccc(C(F)(F)F)c2)CC1	-3%	0	-1%
20	CC1(NC(=O)Cn2cc(C(F)(F)F)ccc2=O)CCS(=O)(=O)C1 (centres undefined)	-1%	-4	-2%
21	CCCN1CCC2(CC1)NC(C(=O)O)Cc1c2[nH]c2ccccc12 (centres undefined)	-12%	-2	1%
22	CCC1(C)NC(C(=O)O)Cc2c1[nH]c1ccccc21 (centres undefined)	2%	-40*	2%
23	CC(CNC(=O)CCC(=O)N1CCOc2ccc(Cl)cc21)c1ccccc1 (centres undefined)	4%	-66*	-4%
24	COc1ccc(NC(=O)CN2C(=O)COc3ccc(S(=O)(=O)N4CCCCC4)cc32)c(OC)c1	11%	1	-5%

nr	B2AR arrestin	Rango complex inh
17	0%	-1%
18	1%	0%
19	0%	-4%
20	-1%	-1%
21	-1%	-2%
22	-1%	-3%
23	0%	0%
24	0%	0%

# (more compounds)
nr	smiles	Rango dissoc inh	CCT modulator	MmCpn inh
25	Cc1nc2ccccc2c(=O)n1/N=C/c1cc(Br)ccc1O	10µM*	1	-16%
26	COC(=O)c1ccccc1Nc1ccccc1	7%	-32*	-1%
27	O=C(COC(=O)c1ccccc1Nc1ccccc1)c1ccccc1	5%	-2	-1%
28	CC1CN(C(=O)CCCN2C(=O)c3ccccc3C2=O)CC(C)O1 (centres undefined)	16%	0	-3%
29	CC(C)CCN1CC(=O)N2[C@@H](Cc3c([nH]c4ccccc34)C2(C)C)C1=O	0%	-6	1%
30	CCOC(=O)c1ccc(NC(=O)N2CCN(Cc3ccccc3)CC2)cc1	6%	-4	0%
31	CCOC(=O)c1ccc(NC(=O)CN2CCN(Cc3ccccc3)CC2)cc1	10%	-86*	3%
32	COC(=O)c1ccc(C(=O)OC)c(NC(=O)CSc2cccc[n+]2[O-])c1	-8%	1	0%

nr	B2AR arrestin	Rango complex inh
25	-1%	?
26	0%	3%
27	0%	-2%
28	0%	-1%
29	0%	0%
30	0%	1%
31	0%	12%
32	5µM*	-2%

# Continuation.
nr	smiles	Rango dissoc inh	CCT modulator	MmCpn inh
33	COC(=O)c1ccc(-n2c(C)cc(C(=O)CSc3cccc[n+]3[O-])c2C)cc1	-9%	-3	-10%
34	COC(=O)c1ccc(NCc2cc(O)ccc2O)cc1O	8%	-2	/
35	CC(C)Sc1nc2[nH]ncc2c(=O)[nH]1	-5%	-1	-2%
36	COc1cc2c(OC(C)=O)c3c(c(-c4ccc5c(c4)OCO5)c2cc1OC)C(=O)OC3	16µM*	0	/
37	COc1cc2c(O)c3c(c(-c4ccc5c(c4)OCO5)c2cc1OC)C(=O)OC3	?	0	1%
38	COc1ccccc1N1CCN(C(c2cc3cc(C)ccc3[nH]c2=O)c2nnnn2C2CCCC2)CC1 (centres undefined)	-8%	1	2%
39	COc1ccccc1N1CCN(C(c2cc3ccc(C)cc3[nH]c2=O)c2nnnn2C2CCCC2)CC1 (centres undefined)	-3%	-3	0%
40	CSc1ccc(-c2cccc([N+](=O)[O-])c2)nn1	-6%	3	3%

nr	B2AR arrestin	Rango complex inh
33	0%	-2%
34	/	18µM*
35	0%	0%
36	0%	?
37	0%	?
38	0%	-2%
39	0%	58µM*
40	0%	4%

# In a second layout: entries from further up.
# The line under a structure holds: Rango dissoc inh | CCT modulator | MmCpn inh | B2AR arrestin | Rango complex inh
34. COC(=O)c1ccc(NCc2cc(O)ccc2O)cc1O
    8% | -2 | / | / | 18µM*
37. COc1cc2c(O)c3c(c(-c4ccc5c(c4)OCO5)c2cc1OC)C(=O)OC3
    ? | 0 | 1% | 0% | ?
36. COc1cc2c(OC(C)=O)c3c(c(-c4ccc5c(c4)OCO5)c2cc1OC)C(=O)OC3
    16µM* | 0 | / | 0% | ?
39. COc1ccccc1N1CCN(C(c2cc3ccc(C)cc3[nH]c2=O)c2nnnn2C2CCCC2)CC1 (centres undefined)
    -3% | -3 | 0% | 0% | 58µM*

# (cont.)
nr	smiles	Rango dissoc inh	CCT modulator	MmCpn inh
41	O=[N+]([O-])c1cccc(-c2ccc(SCc3cccnc3)nn2)c1	-4%	-76*	-1%
42	CCOC(=O)CN1N=C(/C=C/c2ccccc2)CCC1=O	29%	-48*	/
43	CCOC(=O)CN1N=C(/C=C/c2ccc(OCC)cc2)CCC1=O	14%	-8	0%
44	O=C(Cn1ccc2ccccc2c1=O)NCCC(=O)NC1CCN(Cc2ccccc2)CC1	-11%	-31*	-4%
45	CC(=O)Nc1ccc(SCC(=O)Nc2cc(C)on2)cc1	2%	-1	0%
46	C#Cc1ccc([C@H]2C=C(C(=O)NCc3ccccc3)O[C@@H](OCC)[C@@H]2CCCO)cc1	-18%	-68*	/
47	COc1cccc(-n2c([S-])c(C(=O)Nc3ccc(S(=O)(=O)N4CCOCC4)cc3)[n+]3cc(C(N)=O)ccc23)c1	-20%	-41*	-4%
48	O=C(COc1ccc(Br)cc1)Nc1ccccc1C(=O)NC1CC1	16%	-1	-2%
49	COc1cc(Br)cc(C=Nc2cccc(C(F)(F)F)c2)c1O	?	-31*	1%

nr	B2AR arrestin	Rango complex inh
41	0%	?
42	/	-3%
43	0%	2%
44	2%	1%
45	0%	-1%
46	0%	0%
47	0%	?
48	-1%	10%
49	-1%	?
